The subject of one test is RKO xenografts. Put plainly: Xenograft study (tumour growth, immunohistochemistry). Type of test: in vivo, athymic BALB/c nude mice. On the procedure: (§1) All in vivo experiments were performed in accordance with Institutional Review Board of China Medical University guidelines. Female 4–6 weeks old athymic BALB/c nude mice were purchased from Shanghai SLAC Laboratory Animal Centre (Shanghai, China). RKO/Caco-2 cells (1 × 10^7) in 200 μl PBS were injected subcutaneously into the right scapular region of mice. […] Tumours were measured with a caliper every 2 days, so did body weights. Tumour volume was calculated using the formula V = 1/2 (width^2 × length). Mice were terminated by CO2 inhalation when the tumour diameters reached 1.5 cm, according to the protocol filed with the Guidance of Institutional Animal Care and Use Committee of China Medical University.
(§2) Tumours were formalin-fixed, paraffin-embedded and prepared as described in our previous study for staining with haematoxylin and eosin.[19] The immunohistochemical antibodies Ki67, p-ERK, p-EGFR and p-AKT have been described already. The staining was evaluated by scanning the entire tissue specimen under low magnification (×10) and confirmed under high magnification (×20 and ×40). The protein expression was visualised and classified based on the percentage of positive cells and the intensity of staining. From each section, five visual fields were randomly selected. The degree of protein expression was based on the percentage of positive cells and the intensity of staining. Staining intensity was scored as 0 (no staining), 1 (low staining), 2 (intermediate staining), and 3 (high staining). For the staining area, ≤5%, 5–25%, 26–50, 51–75% >75% were recorded as 0, 1, 2, 3 and 4 points, respectively. Histological score = staining intensity × staining area. A score 0 was classified as negative (−), 1–4 points as weakly positive (+), 6–12 points as a strong positive (++). Final scores were assigned by two independent pathologists.
(§3) In vivo subcutaneous tumour growth curves were shown for RKO (c) and Caco-2 (d) cells in vivo. Student’s t-tests were used for statistical analyses. Data are plotted as mean ± SD. P values were labelled in the figures. e Tumour tissue from RKO and Caco-2 xenografts treated for 10 days as indicated was evaluated by IHC for Ki67, p-ERK, p-AKT and p-EGFR. Tumours were harvested 4 h after dosing on day 10

The next test deals with Caco-2 xenografts. The description is as above. Type of test: in vivo, athymic BALB/c nude mice. On the procedure:
as §1, §2, §3

[1] abbreviates: RKO xenograft tumours, day 10, 4 h after dosing, score = staining intensity × staining area.
Setting [2] is: Caco-2 xenograft tumours, day 10, 4 h after dosing, score = staining intensity × staining area.

In the test on RKO xenografts (setting [1]), “Cetuximab: anti-EGFR monoclonal antibody [reference compound]” gave a Ki67 histological score of 9 ±2.12, a p-AKT histological score of 5.2 ±1.10, a p-EGFR histological score of 4.4 ±1.67 and a p-ERK histological score of 6.6 ±1.95. Besides, the tumour growth entry with RKO xenografts (RKO xenograft, AZ304 10 mg/kg oral twice daily, Cetuximab 40 mg/kg i.p. twice per week, 10 days, vs vehicle) was “reduced tumour growth”. In the test with Caco-2 xenografts (setting [2]), this substance came in with a Ki67 histological score of 6.6 ±1.95, a p-AKT histological score of 3.2 ±0.84, a p-EGFR histological score of 3.4 ±0.89 and a p-ERK histological score of 3.4 ±0.89. Also, the tumour growth result in the test with Caco-2 xenografts (Caco-2 xenograft, AZ304 10 mg/kg oral twice daily, Cetuximab 40 mg/kg i.p. twice per week, 10 days, vs vehicle) is reported as “reduced tumour growth”.

The values are drawn from publication PMC5988692, “AZ304, a novel dual BRAF inhibitor, exerts anti-tumour effects in colorectal cancer independently of BRAF genetic status” (British Journal of Cancer, 2018).
